Data: paper PMC9604775, “Bioactive Peptides from Skipjack Tuna Cardiac Arterial Bulbs: Preparation, Identification, Antioxidant Activity, and Stability against Thermal, pH, and Simulated Gastrointestinal Digestion Treatments” (Marine Drugs, 2022)

Assay: Stability to simulated gastrointestinal digestion (DPPH· scavenging activity)
Format: in vitro ADME
Details: two-stage model: pepsin 120 min then trypsin 120 min; 0 to 240 min; peptide 2.0 mg/mL; read-out DPPH· scavenging activity
Experimental: The stability of TCP1 to TCP11 from tuna cardiac arterial bulbs was determined according to the previous method with a slight modification. The DPPH· scavenging activity (%) of TCP1 to TCP11 at 2.0 mg/mL were measured at the set conditions to evaluate their stability.
The thermostability of TCP1 to TCP11 at 20, 40, 60, 80, or 100 °C for 60 min was analyzed in water bath. The influences of pH values of 3, 5, 7, 9, or 11 were employed to estimate the acid and alkali stability properties of TCP1 to TCP11 at 25 °C, and the detecting time was set to 60, 120, and 180 min, respectively. The influence of simulate GI digestion on the stability of TCP1 to TCP11 was evaluated by the two-stage digestion model. In short, APs (TCP1 to TCP11) were separately treated with pepsin for 120 min and trypsin for 120 min.

Declined percentage of DPPH· scavenging activity after simulated GI digestion: 3.22%
SMILES: NCC(=O)N1CCC[C@H]1C(=O)N[C@@H](CCC(N)=O)C(=O)O [TCP4, Gly-Pro-Gln]
